Measured affinities in a library of Ab-14 light chain variants

Target peptide (SARS-CoV-2 spike, HR2 region): PDVDLGDISGINAS

Ab-14 is the parent antibody, in scFv form: VH, then a 15-residue (Gly4Ser)3 linker, then VL. The heavy chain is unchanged in all variants.
VH: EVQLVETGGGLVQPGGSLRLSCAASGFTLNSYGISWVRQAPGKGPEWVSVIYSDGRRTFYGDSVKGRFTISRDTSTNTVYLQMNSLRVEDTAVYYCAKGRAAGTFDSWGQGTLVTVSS
VL: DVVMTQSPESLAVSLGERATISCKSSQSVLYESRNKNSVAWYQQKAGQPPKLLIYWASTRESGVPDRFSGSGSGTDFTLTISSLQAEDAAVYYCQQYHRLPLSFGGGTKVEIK

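The starting antibody came from a phage panning campaign against this peptide. Variants in AAYL50 differ from the parent at up to three CDR positions; double and triple changes were sampled at random. AlphaSeq pools MATa yeast showing the antibodies with MATalpha yeast showing the peptide. Pairs that bind mate more often; barcode pairs of the diploids are counted by sequencing. The ratio of observed to expected reads was calibrated, replicate by replicate, on BCL2-family standards whose Kd was known from biolayer interferometry. The assay was run in three technical replicates.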

Variants are written as CDR1, CDR2 and CDR3 of the light chain (limits as in the source). Parent: KSSQSVLYESRNKNSVA, WASTRES, QQYHRLPLS. All variants listed here change Q95 of the VL, counted from its first residue. The Kd shown is the geometric mean over detected replicates; a lower Kd is a better binder. A pair that was not seen in any replicate is written "no signal"; this usually means weak binding, but a binder can also be missed.

The variant KSSQSVAYESNNKNSVA | WASTRES | RQYHRLPLS showed no signal (0 of 3 replicates; controls 0 of 9).
The variant KSSSSVLYESRNRNSVA | WASTRES | CQYHRLPLS showed 17 µM (2 of 3 replicates; controls 5 of 9).
The variant KSSQSVLYESRNKNSSA | WNSTRES | SQYHRLPLS showed no signal (0 of 3 replicates; controls 0 of 9).
The variant KSSQSVLYESRNKNIVA | WASTRES | GQYHRLPLP showed no signal (0 of 3 replicates; controls 1 of 9).
The variant KSSQSVLYESRNKNRVA | WASTRES | NQYHRLPLL showed no signal (0 of 3 replicates; controls 1 of 9).
The variant KSSQCVLYETRNKNSVA | WASTRES | IQYHRLPLS showed 230 nM (3 of 3 replicates; controls 2 of 9).
The variant KSSQSVLYDSRNKNSVA | WASTREF | WQYHRLPLS showed 1.2 µM (2 of 3 replicates; controls 2 of 9).
The variant KSSQSVLYESRNFNSVA | WASTRES | YQYKRLPLS showed no signal (0 of 3 replicates; controls 0 of 9).
The variant KSSQSVLYESRNQNSVA | WASTRES | SQYHRLDLS showed 6.9 nM (3 of 3 replicates; controls 2 of 9).
The variant KSSRSVLYESRNKNSVA | WASTRES | VQYHRYPLS showed no signal (0 of 3 replicates; controls 0 of 9).
The variant KSSQSVLYESRNKNSVA | WMSTRES | GQYHRLPLE showed no signal (0 of 3 replicates; controls 1 of 9).
The variant PSYQSVLYESRNKNSVA | WASTRES | YQYHRLPLS showed 940 nM (1 of 3 replicates; controls 1 of 9).
The variant KSSQSVLYESRNKNSEA | WASTRES | VQYHRLNLS showed 17 µM (1 of 3 replicates; controls 5 of 9).
The variant KSSQSVLYESRNKNVVA | WASTRTS | IQYHRLPLS showed no signal (0 of 3 replicates; controls 2 of 9).
The variant KSSQSVLYESRNKNSVA | WASTRES | MIYHRKPLS showed no signal (0 of 3 replicates; controls 1 of 9).
The variant KSSQKVLYESRNKNSVA | WASTRES | MQYHRLPYS showed 2.6 µM (1 of 3 replicates; controls 0 of 9).
The variant KSSQSRLYESRNKNSVA | WASTREY | RQYHRLPLS showed 180 nM (3 of 3 replicates; controls 1 of 9).
The variant KWSQSVLYESRNKNSVA | WASARES | KQYHRLPLS showed 110 µM (1 of 3 replicates; controls 2 of 9).
The variant KSSQSVLYESRNSNSVA | WASTRSS | TQYHRLPLS showed 4.2 µM (1 of 3 replicates; controls 1 of 9).
The variant KSSQSVLYESRNKNSVA | WASTRNS | KQYHRLPLS showed 340 nM (3 of 3 replicates; controls 0 of 9).
The variant KSSQSVLYEFRNKNSVA | MASTRES | VQYHRLPLS showed 25 nM (3 of 3 replicates; controls 1 of 9).
The variant KSSQSVLYESRNKNSVA | WAHTRES | LQYHRLPLS showed no signal (0 of 3 replicates; controls 0 of 9).
The variant KSSQSVLYESRNKNSVA | WASTRES | YQYNRLPLS showed 150 µM (2 of 3 replicates; controls 5 of 9).
The variant KSSQSVLYESRNKNSVA | WASTRES | GQYCRLPRS showed 71 µM (2 of 3 replicates; controls 0 of 9).
The variant KSSQSVLYESRNKNSVA | WASTPES | SQYHRLPLF showed no signal (0 of 3 replicates; controls 1 of 9).
The variant KSSQSVLYESRNKNSVA | WASTRES | GQDHRLPLD showed 130 nM (3 of 3 replicates; controls 1 of 9).
The variant KSSQSVLYPSRNKNSVA | WASTRES | YQYHRRPLS showed no signal (0 of 3 replicates; controls 0 of 9).
The variant KSSYSVLYESRNKNSVA | WASTRES | TQYHHLPLS showed 390 nM (3 of 3 replicates; controls 0 of 9).
The variant KSSGGVLYESRNKNSVA | WASTRES | YQYHRLPLS showed 80 nM (3 of 3 replicates; controls 0 of 9).
The variant KSSQSVLYESRNKNSVA | WCSTRGS | VQYHRLPLS showed no signal (0 of 3 replicates; controls 0 of 9).
The variant KSSQSVLYWPRNKNSVA | WASTRES | GQYHRLPLS showed no signal (0 of 3 replicates; controls 0 of 9).
The variant KSSQSVLYESRNKNSVA | WASTRKS | GQYHRLPLS showed no signal (0 of 3 replicates; controls 2 of 9).
The variant KSTQCVLYESRNKNSVA | WASTRES | VQYHRLPLS showed no signal (0 of 3 replicates; controls 2 of 9).
The variant KSSDSVLYESRNKNSVA | VASTRES | TQYHRLPLS showed 15 µM (1 of 3 replicates; controls 2 of 9).
The variant KSSQSVLYESRNKNSVA | WASTREI | CQYHRLVLS showed 34 nM (3 of 3 replicates; controls 1 of 9).
The variant NSSQSVLYESRNKNSTA | WASTRES | NQYHRLPLS showed 3.3 µM (1 of 3 replicates; controls 0 of 9).
The variant KSSQSVLYESRPKSSVA | WASTRES | EQYHRLPLS showed 2.0 µM (1 of 3 replicates; controls 1 of 9).
The variant KSSQSVLYESRNKNSVA | WAILRES | IQYHRLPLS showed no signal (0 of 3 replicates; controls 0 of 9).
The variant KSSQSVSYESRNKNSVA | YASTRES | LQYHRLPLS showed 13 nM (3 of 3 replicates; controls 3 of 9).
The variant KSSQSVLYESRNKNSVA | WADTRES | KQYHPLPLS showed no signal (0 of 3 replicates; controls 0 of 9).
The variant KSSQSVLYESWNKNSVA | WASTRQS | TQYHRLPLS showed no signal (0 of 3 replicates; controls 0 of 9).
The variant KSSQSVLYESRNKNSVA | WASTRES | GQYHRLPLS showed 360 nM (3 of 3 replicates; controls 0 of 9).
The variant KSSQSVLYESRNKNSVA | WASTRES | HQKHFLPLS showed no signal (0 of 3 replicates; controls 1 of 9).
The variant KSSQDVLYESRNKNSWA | WASTRES | IQYHRLPLS showed 9.7 µM (3 of 3 replicates; controls 2 of 9).
The variant KSSASVLYESRNKISVA | WASTRES | CQYHRLPLS showed no signal (0 of 3 replicates; controls 0 of 9).
The variant KSSQTVLYESRNKNSLA | WASTRES | IQYHRLPLS showed 52 nM (3 of 3 replicates; controls 2 of 9).
The variant HSSQSVTYESRNKNSVA | WASTRES | MQYHRLPLS showed 55 nM (3 of 3 replicates; controls 0 of 9).
The variant KSSQSVLYESRNFNSVA | WKSTRES | VQYHRLPLS showed 30 nM (3 of 3 replicates; controls 3 of 9).
The variant KSSQTVLYESRNKNSVA | WAITRES | NQYHRLPLS showed no signal (0 of 3 replicates; controls 0 of 9).
The variant KSSQSVLYESCNKNSVA | WFSTRES | YQYHRLPLS showed no signal (0 of 3 replicates; controls 3 of 9).
The variant KSSQSVLYESRNKGSGA | WASTRES | IQYHRLPLS showed 430 µM (1 of 3 replicates; controls 0 of 9).
The variant KSSQSVLYESRNKNSVA | WASTRES | RQIHRCPLS showed 3.9 µM (3 of 3 replicates; controls 3 of 9).

For reference, the parent read 4.4 nM as the reference entry and 48 nM as a member of this library. Nonspecific signal, from three strains lacking the peptide, appeared in 18% of pairings of library AAYL50, centred on 15 µM (5% of these signals below 970 nM); values are not corrected for it. The control count says in how many pairings with the empty strains this scFv gave a signal.

Reference: Engelhart et al. 2022, doi:10.1038/s41597-022-01779-4. File: FLAb, binding data.